In this assay the test system is SW48 colon cancer cells (wild-type BRAF and KRAS). The assay is described as follows: Efficacy (viability) on SW48 colon cancer cells. Particulars: cetuximab 1 ug/ml (FIG. 3). Type of assay: cell-based.

Turning to cetuximab, the “sensitivity of cells to treatment” value is “sensitive”.

(Values after patent US11384150B2, “Antibody-drug conjugates and uses thereof” (Development Center for Biotechnology, priority 2016, dated 2022).)
